# Literature values, collected in paper PMC9860728, “Identification of New N-methyl-piperazine Chalcones as Dual MAO-B/AChE Inhibitors” (Pharmaceuticals, 2023).
# Protein sequences, listed by entry. Tags and fused reporters are not part of them. Residues count along the entry.
# UniProt O42275, 24-633 limits assumed: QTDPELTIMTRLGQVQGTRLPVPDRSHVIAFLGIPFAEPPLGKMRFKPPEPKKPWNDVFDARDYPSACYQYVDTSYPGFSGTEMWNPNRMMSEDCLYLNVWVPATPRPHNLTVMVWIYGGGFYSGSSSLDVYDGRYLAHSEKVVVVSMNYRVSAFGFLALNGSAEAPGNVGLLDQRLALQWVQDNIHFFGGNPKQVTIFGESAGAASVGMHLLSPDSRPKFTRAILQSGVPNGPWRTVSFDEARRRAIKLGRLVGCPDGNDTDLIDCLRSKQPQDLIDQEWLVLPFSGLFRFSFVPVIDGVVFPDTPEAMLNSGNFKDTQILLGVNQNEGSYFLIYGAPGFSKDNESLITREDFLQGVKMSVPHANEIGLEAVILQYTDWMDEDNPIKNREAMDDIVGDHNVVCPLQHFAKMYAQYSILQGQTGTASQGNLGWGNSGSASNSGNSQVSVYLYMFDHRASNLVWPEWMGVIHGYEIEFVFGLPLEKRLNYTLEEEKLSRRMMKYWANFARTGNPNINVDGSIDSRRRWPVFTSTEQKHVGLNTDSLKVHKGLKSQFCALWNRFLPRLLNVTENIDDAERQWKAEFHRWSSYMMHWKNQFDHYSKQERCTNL
# Target: AChE (Electrophorus electricus, UniProt O42275)
# Details: read-out: IC50 (μM) AChE; cited from earlier work
smiles,measurement,value
CN(C)c1ccc(/C=C/C(=O)c2ccc(N3CCNCC3)cc2)cc1,IC50,> 10 µM
